The values that follow come from patent publication US20030022253A1, “Method for identifying, isolating and producing neuroactive binding agents and binding agents derived thereby” (Nyxis Neurotherapies, Inc., priority 2001, published 2003).

The conditions of data set [1]: up to 500 mg/Kg of peptide delivered IV.
The conditions of data set [2]: delivered intravenously or trans-nasally.

Turning to “threonine-proline-proline-threonine [NT-13]”, the side effects entry in data set [1] is listed as “no obvious side effects”. For the same substance, the “crossing of the blood brain barrier” value in data set [2] was “cross the blood brain barrier”.
